In the series the test system is turf, or other plant materials. The following applies: incorporated at relatively low levels in the formulation with a polymer of Formula I.

monophosphate of POE (6) decyl alcohol: the phytotoxicity result is reported as “not causing the formulation to be phytotoxic”.

These data come from patent US20220356398A1, “Composition and Method for Improving the Water Transport Characteristics of Hydrophobic Soils” (Ethox Chemicals, LLC, priority 2021, published 2022).
